# Reference: ChEMBL document CHEMBL1140106, “Blocking estrogen signaling after the hormone: pyrimidine-core inhibitors of estrogen receptor-coactivator binding” (J Med Chem, 2008)
# Amino acid sequences for entries named in this document (tags omitted).
# UniProt Q92731, whole entry: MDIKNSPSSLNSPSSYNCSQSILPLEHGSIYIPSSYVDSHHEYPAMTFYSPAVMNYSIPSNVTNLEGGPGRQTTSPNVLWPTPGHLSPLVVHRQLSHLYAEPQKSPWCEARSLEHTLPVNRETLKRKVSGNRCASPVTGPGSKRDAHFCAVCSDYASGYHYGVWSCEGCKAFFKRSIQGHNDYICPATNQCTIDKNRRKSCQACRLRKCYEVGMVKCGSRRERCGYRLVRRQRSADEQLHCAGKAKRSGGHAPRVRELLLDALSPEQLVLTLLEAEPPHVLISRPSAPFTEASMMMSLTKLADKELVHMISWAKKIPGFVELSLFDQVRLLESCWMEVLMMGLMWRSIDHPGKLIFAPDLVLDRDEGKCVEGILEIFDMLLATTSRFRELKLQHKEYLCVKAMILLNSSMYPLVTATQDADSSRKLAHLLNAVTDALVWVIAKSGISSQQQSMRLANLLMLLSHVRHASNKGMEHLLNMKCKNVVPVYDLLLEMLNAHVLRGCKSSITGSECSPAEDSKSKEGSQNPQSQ
# UniProt P03372, whole entry: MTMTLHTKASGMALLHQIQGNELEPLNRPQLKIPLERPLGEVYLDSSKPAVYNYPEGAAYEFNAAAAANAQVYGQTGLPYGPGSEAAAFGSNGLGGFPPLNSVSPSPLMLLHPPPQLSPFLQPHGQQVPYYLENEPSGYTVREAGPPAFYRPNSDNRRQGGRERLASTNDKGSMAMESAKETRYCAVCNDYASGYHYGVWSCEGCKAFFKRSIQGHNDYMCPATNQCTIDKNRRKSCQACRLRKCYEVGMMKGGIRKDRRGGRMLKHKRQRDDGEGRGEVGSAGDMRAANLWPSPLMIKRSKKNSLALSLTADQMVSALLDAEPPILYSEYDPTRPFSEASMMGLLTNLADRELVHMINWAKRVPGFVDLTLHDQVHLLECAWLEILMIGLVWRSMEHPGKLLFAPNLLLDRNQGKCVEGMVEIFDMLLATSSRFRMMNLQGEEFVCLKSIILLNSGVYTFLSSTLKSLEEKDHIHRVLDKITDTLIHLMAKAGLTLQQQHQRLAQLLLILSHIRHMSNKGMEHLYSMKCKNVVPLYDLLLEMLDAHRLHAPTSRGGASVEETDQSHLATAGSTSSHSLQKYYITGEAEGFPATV
# How the values were obtained:
# [1] = biological target: Estrogen receptor beta (Homo sapiens, UniProt Q92731); test: Displacement of [3H]estradiol from full length purified human ERbeta relative to estradiol
# [2] = biological target: Estrogen receptor (Homo sapiens, UniProt P03372); test: Displacement of [3H]estradiol from full length purified human ERalpha relative to estradiol
RBA [1] [%],RBA [2] [%],SMILES
< 0.001,< 0.001,CC(C)CNc1cc(CCc2cccc3ccccc23)nc(NCC(C)C)n1
< 0.001,< 0.001,CC(C)CCc1cc(NCC(C)C)nc(N(C)CC(C)C)n1
